The series concerns primary rat hepatocytes. The series can be described thus: In vitro phospholipidosis protocol (DHPE-TRITC accumulation). As for the experimental part:
Assessment of a compounds potential to induce phospholipidosis was determined by an in vitro fluorescent assay which reports the accumulation of phospholipids in primary rat hepatocytes. Hepatocytes were isolated from Han Wistar rats by a 2-stage collagenase digest method. The hepatocytes were then plated on collagen coated 96-well plates in William's E medium. The cells were left to adhere for 1 hour then the media was replaced with a solution of 250 μg.ml^−1 collagen in Hepatozyme cell culture medium.
Cells were then cultured for 48 hours with the medium being changed at 24 hours. At 48 hours post isolation the medium was changed to Hepatozyme supplemented with the fluorescent phospholipid N-(6-tetramethylrhodaminethiocarbamoyl)-1,2-dihexadecanoyl-sn-glycero-3-phosphoethanolamine (DHPE-TRITC) (5 μg.ml^−1). At this time, test compounds were added to the hepatocytes at a range of concentrations in a serial dilution with a final concentration of 0.4% dimethylsulfoxide (used as solvent for test compounds).
The cells were incubated for a further 24 hours and then fixed by addition of a phosphate buffered saline (PBS) solution containing the nuclear stain Hoechst 33342 (final concentration 2 μM) and paraformaldehyde solution (final concentration 4%). The plates were kept at room temperature for 30 minutes then washed three times in PBS solution.
Images of the hepatocytes were then acquired using an automated microscope platform (GE In Cell Analyser 3000). Image analysis algorithms were then used to assess cell viability and the accumulation of the DHPE-TRITC label within viable hepatocytes. The quantified accumulation observed with test compounds was then normalised to a range of 0, representing the accumulation observed in cells exposed to vehicle only, and 1, representing cells exposed to 10 μM amiodarone. The maximum accumulation across the dose response of the test compound, where cell viability is >50%, is reported, as is the dose at which this maximum was observed. The lowest dose that caused >50% cell toxicity is also reported. […]

For the molecule `N[C@H]1CCN(c2ccc3c(C(=O)NCC4CCCCC4)c(Cl)ccc3n2)C1`, the maximum accumulation concentration (dose at which maximum accumulation was observed) was 8 µM. For the same molecule, the minimum toxic concentration (lowest dose that caused >50% cell toxicity) was 23 µM. For the same molecule, the “maximum accumulation (phospholipidosis)” value (relative to 10 μM amiodarone control (=1), vehicle = 0, cell viability >50%) was found to be 0.6.

These data come from US8106073B2, “Quinoline derivatives 057” (AstraZeneca AB, priority 2007, dated 2012).
